# Earlier results as cited in publication PMC3966047, “Analysis of the minimal specificity of caspase-2 and identification of Ac-VDTTD-AFC as a caspase-2-selective peptide substrate” (Bioscience Reports, 2014).
# Columns and labels:
# caspase-3 = target: T1, caspase-3 (Homo sapiens, UniProt P42574); conditions: site DVPD↓C; cited from earlier work
# T1 construct: made in house; host or cells: E. coli BL21(DE3)pLysS
# T1 sequence (P42574 29-175 limits assumed): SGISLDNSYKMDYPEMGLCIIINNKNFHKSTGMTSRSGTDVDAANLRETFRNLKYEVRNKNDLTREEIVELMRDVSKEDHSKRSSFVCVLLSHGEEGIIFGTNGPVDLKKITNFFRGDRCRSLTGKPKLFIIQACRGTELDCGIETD
# T1 sequence (P42574 176-277 limits assumed): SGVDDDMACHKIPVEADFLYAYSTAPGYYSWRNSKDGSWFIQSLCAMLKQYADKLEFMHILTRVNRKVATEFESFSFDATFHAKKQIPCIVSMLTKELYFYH
# Excerpt: Bioinformatic analyses, using the data from the transcriptional reporter system, predicted that caspase-2 could cleave Runx1. Runx1 plays a critical role in haematopoiesis, and Runx1 translocations or other mutations occur frequently in myeloid leukaemias, and less commonly in other cancer types. […] Caspase-2 was predicted to cleave Runx1 at the site DVPD^99↓G, within the βB-C ...
# caspase-2 = conditions: site DVPD↓C; cited from earlier work
# Excerpt: It seems likely that identification of caspase-2 substrates may provide valuable clues to its biological role. […] Apoptotic signalling by caspase-2 has been proposed to result from its processing of the pro-apoptotic Bcl-2 relative Bid. […] Runx1 plays a critical role in haematopoiesis, and Runx1 translocations or other mutations occur frequently in myeloid leukaemias, and less commonly in other cancer types. […] Caspase-2 was predicted to cleave Runx1 at the site DVPD^99↓G, within the βB-C ...
substance,measurement,setting,value
MDM-2: murine double minute 2,cleavage by caspase-3 compared with caspase-2 (in words),caspase-3,less potently by caspase-3
same,cleavage by caspase-2 (in words),caspase-2,cleaved by caspase-2
